From ChEMBL document CHEMBL5096187, “Efficient Synthesis and Bioevaluation of Novel Dual Tubulin/Histone Deacetylase 3 Inhibitors as Potential Anticancer Agents” (J Med Chem, 2021)

Species: Homo sapiens
Assay: Selectivity index, ratio of IC50 for Inhibition of full length N-terminal GST-tagged human recombinant HDAC7 (501 to 952 residues) expressed in Baculovirus system using Ac-Leu-Gly-Lys (Ac)-AMC as substrate to IC50 for inhibition of full length C-terminal his-tagged human recombinant HDAC8 (142 to 143 residues) expressed in baculovirus in Sf9 insect cells using Ac-Leu-Gly-Lys (Tfa)-AMC as substrate

Question: How did the Selectivity Index turn out when `COc1cc(C(=O)c2csc(-c3ccc(NC(=O)/C=C/C(=O)Nc4ccccc4N)cc3)n2)cc(OC)c1OC` was run?
Answer: Its Selectivity Index is 54.
